# Tested on: alpha-glucosidase (Saccharomyces cerevisiae)
# Test: Potency index, ratio of acarbose IC50 to compound IC50 for alpha-glucosidase (unknown origin)
# Conditions: Homo sapiens
structure (smiles),measurement,value
O=C(Cn1cc(CSc2nnc(-c3ccccc3)c(-c3ccccc3)n2)nn1)Nc1cc(Cl)ccc1Cl,Ratio IC50,70

# Source: ChEMBL document CHEMBL4041478, “Synthesis, in vitro evaluation and molecular docking studies of novel triazine-triazole derivatives as potential α-glucosidase inhibitors” (Eur J Med Chem, 2017)
